Molecular target: Acetylcholinesterase (Homo sapiens, UniProt P22303)
Experiment: The cholinesterase assays were performed using colorimetric method reported by Ellman. […] The reaction rates were compared and the percent inhibition due to the presence of test compounds was calculated. Inhibition curve was obtained for each compound.
Details: pH 8; 37 °C

Protein sequences, listed by entry. Tags and fused reporters are not part of them. Lines headed by an entry give the natural chain unless they say otherwise; changes in a name come on top.
UniProt P22303: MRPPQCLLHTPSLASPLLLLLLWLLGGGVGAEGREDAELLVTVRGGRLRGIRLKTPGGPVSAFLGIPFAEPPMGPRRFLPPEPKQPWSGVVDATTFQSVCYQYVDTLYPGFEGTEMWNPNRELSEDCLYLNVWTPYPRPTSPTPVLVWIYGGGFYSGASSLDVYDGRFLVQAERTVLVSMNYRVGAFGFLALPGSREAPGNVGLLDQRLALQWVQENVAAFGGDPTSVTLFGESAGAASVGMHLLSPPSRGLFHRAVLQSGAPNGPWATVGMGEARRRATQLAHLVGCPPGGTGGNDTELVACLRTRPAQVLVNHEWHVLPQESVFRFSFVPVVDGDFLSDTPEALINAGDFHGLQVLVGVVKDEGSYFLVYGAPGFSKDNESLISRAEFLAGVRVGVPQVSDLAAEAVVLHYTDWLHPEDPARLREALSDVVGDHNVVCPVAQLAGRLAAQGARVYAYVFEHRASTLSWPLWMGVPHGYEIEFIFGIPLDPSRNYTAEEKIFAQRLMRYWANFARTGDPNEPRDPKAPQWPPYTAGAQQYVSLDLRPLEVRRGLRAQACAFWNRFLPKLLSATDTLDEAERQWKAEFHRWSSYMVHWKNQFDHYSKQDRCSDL

CNC(=O)Oc1cccc(CN(C)CCCCCCCOc2ccc3c(O)coc3c2)c1 [3-[(methyl{7-[(3-oxo-2,3-dihydro-1-benzofuran-6-yl)oxy]heptyl}amino)methyl]phenyl methylcarbamate]
IC50: 1610 nM
